# Assay outcomes from PubChem BioAssay.
# MITF TRPM1 inh: MITF TRPM1 promoter inhibition in SK-MEL-5 cells; SK-MEL-5 TRPM1 promoter luciferase, 24 h; inhibition, % at 12.5 µM; 330,000 compounds, 0.83% hits;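 active = mean inhibition across replicates of 60% or more, whatever share of single replicates reaches that level; inconclusive = some that reach 60%, reason not given; inactive = mean inhibition across replicates below 60%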
# miR122 inh: inhibitors of miR-122 in Huh7 cells | Huh7 miR-122 Renilla luciferase sensor, 48 h; neutral wells = 0, positive control = 100 | activation (reporter increase), % at 12.5 µM | 340,000 compounds, 0.3% hits | AID 602342;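 active = mean replicate activation score at least 90 and every replicate individually at or above 90; inconclusive = only one of the two criteria met; inactive = neither criterion met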;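 also: higher luciferase means less miR-122 activity so hits act as miR-122 inhibitors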
# Wnt bcat act: Wnt/beta-catenin pathway activation; Wnt/beta-catenin reporter cell assay, activator, plate reader; activation, % at 9.35 µM; 300,000 compounds, 1.2% hits; in the data active = activation above about 30%, passing the limit was not always enough; inconclusive = no clear call, values can overlap the other calls;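 also: 0% = neutral control wells and 100% = positive control wells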
# MITF TRPM1 HTS: MITF TRPM1 promoter activation in melanoma cells | 300,000 compounds, 0.75% hits | activation, % at 12.5 µM | AID 588334 | SK-MEL-5 TRPM1-promoter luciferase, 24 h; % of positive control, neutral wells = 0;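 active = mean activation of at least 80% with every replicate also reaching 80%; inconclusive = mean reaches 80% but some replicate falls short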;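 also: 0% = neutral control wells and 100% = parthenolide positive control wells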
# PGC1a acetyl inh: modulators of PGC1a acetylation; U2OS PGC1a acetylation, AlphaScreen anti-acetyl-lysine; with virally co-expressed GCN5 acetyltransferase; inhibition, % at 15.6 µM; 350,000 compounds, 0.17% hits;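 active = every replicate shows inhibition of at least 40%; inconclusive = mean inhibition at least 40% but some replicate below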;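 also: 0% = neutral control wells and 100% = positive control wells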
# UUG fidelity: alters start codon recognition fidelity in yeast | S. cerevisiae UUG-firefly luciferase reporter, luminescence/redox ratio | activity score, % at 18.7 µM | hit rate 0.13% among 350,000 | AID 602363;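 active means replicate mean at a twofold rise or more, about +100% in these data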;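 further: firefly luciferase made from a UUG start codon reports start codon fidelity; reporter light over untreated wells divided by growth signal over untreated wells; some hits fall short of that in this replicate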
# An asterisk follows results filed as active; ? = inconclusive; . = no result given; [ ] = dose if it differs, or a comment. Compounds with a hit are over-represented: about 2.1% of the library has one in this group of screens.
# The line under a structure holds: MITF TRPM1 HTS, miR122 inh, MITF TRPM1 inh, PGC1a acetyl inh, Wnt bcat act, UUG fidelity
- Cc1cc(C(=O)CSc2nc3ccccc3[nH]2)c(C)n1CC1CCCO1 (stereo unspecified)
  -33, 27, 28, 21, ., .
- c1ccc2[nH]c(SCC3CCCCO3)nc2c1 (stereo unspecified)
  87*, ., -89, -15, 40*, .
- COc1ccc(CN(C)C[C@H]2OCCCC[C@@H](C)Oc3ccc(NC(=O)c4ccccc4)cc3C(=O)N([C@@H](C)CO)C[C@@H]2C)cc1
  ., -3[16.7 µM], ., 2, ., 2
- COc1ccc(CCNC(=O)C(=O)NCc2ccccn2)cc1
  -1, -13, 2, -12, 37*, 11
- Cc1noc(C)c1S(=O)(=O)Nc1ccc2c(c1)C(=O)N([C@@H](C)CO)C[C@H](C)[C@H](CN(C)Cc1ccc(C(=O)O)cc1)OCCCC[C@H](C)O2
  ., 7[16.7 µM], ., -14, ., 13
- Nc1ccccc1SC1CC(=O)N(c2ccc(Cl)c(Cl)c2)C1=O (stereo unspecified)
  -13, ., 11, ., 1, -18
- Nc1ccccc1SC1CC(=O)N(c2ccc3c(c2)OCCO3)C1=O (stereo unspecified)
  ., ., -60, ., 35*, .
- NC(=O)C1=C[C@H](C2CCCCC2)C[C@H](OCc2ccc(CO)cc2)O1
  107*, -3, -102, 4, ?, -6
- C=CCOC(=O)C1=C[C@H](C2CCCCC2)C[C@H](OCc2ccc(CO)cc2)O1
  -7, 76, 6, 9, -1, -28
- N#C/C(=C/c1ccc(-c2ccc(S(N)(=O)=O)cc2)o1)c1nc2ccccc2s1
  -23, ., 19, ., ., .
- CNC(=O)/C(C#N)=C/c1ccc(-c2nc3ccccc3s2)o1
  ., 2, ., 10, 43*, -13
- CNC(=O)/C(C#N)=C\c1ccc(CNS(=O)(=O)c2ccccc2)o1
  -4, 0, 6, 6, ., -21
- N#C/C(=C\c1ccc(-c2nc3ccccc3s2)o1)C(N)=O
  ., ., -4, -8, 44*, .
- COc1cccc(-c2cnc3c(c2)C(=O)N([C@@H](C)CO)C[C@@H](C)[C@@H](CN(C)C(C)=O)O3)c1
  ., 0[16.7 µM], ., -1, ., 0
- O=C(Nc1ccc(NC(=O)c2ccco2)nc1)c1cccc(F)c1
  67, -3, -65, 3, 31*, -21

# (continued)
# The line under a structure holds: MITF TRPM1 HTS, miR122 inh, MITF TRPM1 inh, PGC1a acetyl inh, Wnt bcat act, UUG fidelity
- O=C(Nc1ccc(NC(=O)c2ccco2)nc1)c1cccnc1
  24, -1, -22, -33, 25, -33
- Cc1cc(NC(=O)c2cccc(F)c2)ncc1NC(=O)c1ccco1
  70, 6, -64, -8, 36*, -33
- COc1cccc(C(=O)Nc2ccc(NC(=O)c3ccco3)nc2)c1
  93*, -3, -94, 0, ., -19
- Cc1cc(NC(=O)c2cccs2)ncc1NC(=O)c1cccc(F)c1
  27, ., -21, ., ., .
- COCc1cn(CC[C@@H]2CC[C@@H](NC(=O)Nc3ccc(OC)cc3)[C@H](CO)O2)nn1
  ., ., ., -2, ., 2
- Cc1ccccc1S(=O)(=O)N[C@H]1CC[C@H](CCn2cc(Cc3ccccc3)nn2)O[C@@H]1CO
  ., ., ., 61*, ., -5
- O=S(=O)(N[C@H]1CC[C@@H](CCn2cc(Cc3ccccc3)nn2)O[C@H]1CO)c1ccccc1F
  ., ., ., -5, ., .
- COCc1cn(CC[C@H]2CC[C@H](NC(=O)Nc3ccc(OC)cc3)[C@H](CO)O2)nn1
  ., ., ., 0, ., 216*
- Cc1ccc(S(=O)(=O)Nc2ccc3c(c2)CC(=O)N([C@H](C)CO)C[C@@H](C)[C@@H](CN(C)C(=O)Nc2ccc4c(c2)OCO4)O3)cc1
  ., 9[16.7 µM], ., -10, ., -2
- Cc1cccc(C(=O)Nc2sc(-c3ccccc3)cc2C(=O)O)c1
  93*, -20, -91, 4, 26, -5
- CC(C)(C)C(=O)Nc1sc(-c2ccccc2)cc1C(=O)O
  25, 11, -23, 7, 26, -13
- Cn1c(SCc2ccccc2Cl)nc2ccccc21
  131*, 1, -137, -4, ., .
- O=c1c2sc(-c3ccccc3)cc2nc2n1CCCCC2
  ., -4, -54, 9, 56*, -2
- O=c1c2sc(-c3ccccc3)cc2nc2n1CCC2
  -13, -6, 12, ., 8, -28
- CC(=O)c1sc(NC(=O)c2ccc3c(c2)OCO3)nc1C
  114*, -5, -107, -2, 39*, -15

# Six entries drawn at random from those above, as already listed:
# The line under a structure holds: MITF TRPM1 HTS, miR122 inh, MITF TRPM1 inh, PGC1a acetyl inh, Wnt bcat act, UUG fidelity
- Cc1ccccc1S(=O)(=O)N[C@H]1CC[C@H](CCn2cc(Cc3ccccc3)nn2)O[C@@H]1CO
  ., ., ., 61*, ., -5
- COCc1cn(CC[C@@H]2CC[C@@H](NC(=O)Nc3ccc(OC)cc3)[C@H](CO)O2)nn1
  ., ., ., -2, ., 2
- CC(C)(C)C(=O)Nc1sc(-c2ccccc2)cc1C(=O)O
  25, 11, -23, 7, 26, -13
- Cn1c(SCc2ccccc2Cl)nc2ccccc21
  131*, 1, -137, -4, ., .
- Cc1cccc(C(=O)Nc2sc(-c3ccccc3)cc2C(=O)O)c1
  93*, -20, -91, 4, 26, -5
- Cc1ccc(S(=O)(=O)Nc2ccc3c(c2)CC(=O)N([C@H](C)CO)C[C@@H](C)[C@@H](CN(C)C(=O)Nc2ccc4c(c2)OCO4)O3)cc1
  ., 9[16.7 µM], ., -10, ., -2

# (list continues)
# The line under a structure holds: MITF TRPM1 HTS, miR122 inh, MITF TRPM1 inh, PGC1a acetyl inh, Wnt bcat act, UUG fidelity
- Cc1nc(NC(=O)c2ccc3c(c2)OCO3)ccc1Br
  129*, ., -130, 1, -3, .
- O=C(Cc1ccccn1)NCC[C@@H]1CC[C@@H](NC(=O)Nc2ccc(C(F)(F)F)cc2)[C@H](CO)O1
  ., ., ., -2, ., 8
- O=C(Cc1ccccn1)NCC[C@@H]1CC[C@@H](NC(=O)Nc2ccc(C(F)(F)F)cc2)[C@@H](CO)O1
  ., ., ., 45*, ., -8
- O=C(Cc1ccccn1)NCC[C@@H]1CC[C@H](NC(=O)Nc2ccc(C(F)(F)F)cc2)[C@@H](CO)O1
  ., ., ., 50*, ., -1
- Nc1nc2ccccc2cc1-c1cccs1
  90*, 5, -78, 0, 20, 2
- COc1ccc2[nH]cc(C(=O)CCl)c2c1
  -91, -11, 91*, 9, 1, -17
- COc1ccc2[nH]cc(C(=O)CNc3nc(C)cs3)c2c1
  ., 13, -13, 10, 42*, 3
- COc1ccc2[nH]cc(C(=O)CN3CC(C)CC(C)C3)c2c1 (stereo unspecified)
  -4, 6, 5, 6, -1, -6
- CN(C)C(=O)C[C@H]1CC[C@H]2[C@H](COc3ccc(NC(=O)C4CCOCC4)cc3C(=O)N2C)O1
  ., 0[16.7 µM], ., 4, ., 0
- COCC(=O)Nc1ccc2c(c1)[C@@H]1C[C@@H](CC(=O)N[C@H](C)c3ccccc3)O[C@H](CO)[C@@H]1O2
  ., 0[16.7 µM], ., 3, ., .
- O=C1CSC(=S)N1/N=C/c1cccnc1
  ., 10, 1, -3, 41*, -20
- O=C1CSC(=S)N1N=Cc1ccccc1O
  9, ., -5, ., 8, .
- COc1ccc(S(=O)(=O)N[C@H]2C=C[C@@H](CC(=O)NCc3ccccc3F)O[C@H]2CO)cc1
  ., ., ., -15, ., 18
- Cc1noc(C)c1S(=O)(=O)Nc1ccc2c(c1)C(=O)N([C@@H](C)CO)C[C@@H](C)[C@@H](CN(C)C(=O)NC(C)C)O2
  ., -1[16.7 µM], ., -10, ., 6
- CC(=O)n1nc(-c2ccc(C)cc2)nc1NCc1ccco1
  105*, ., -98, -2, 11, .

# Following part
# The line under a structure holds: MITF TRPM1 HTS, miR122 inh, MITF TRPM1 inh, PGC1a acetyl inh, Wnt bcat act, UUG fidelity
- O=C(O)C[C@H]1C[C@@H]2c3cc(NS(=O)(=O)c4ccc(F)cc4)ccc3O[C@@H]2[C@H](CO)O1
  ., 0[16.7 µM], ., -1, ., .
- COc1ccc(S(=O)(=O)N(C)C[C@H]2Oc3cc(C#CC4CC4)ccc3S(=O)(=O)N([C@H](C)CO)C[C@H]2C)cc1
  ., 135*[16.7 µM], ., -35, ., 8
- C[C@H]1CN([C@@H](C)CO)S(=O)(=O)c2ccc(C#CC3CCCC3)cc2O[C@@H]1CN(C)Cc1cccnc1
  ., 38[16.7 µM], ., -2, ., -1
- CC(C)CC#Cc1ccc2c(c1)O[C@H](CN(C)Cc1ccccc1)[C@@H](C)CN([C@H](C)CO)S2(=O)=O
  ., 55[16.7 µM], ., 52*, ., 11
- C[C@H]1CN([C@@H](C)CO)S(=O)(=O)c2ccc(C#CC3CCCCC3)cc2O[C@@H]1CN(C)Cc1cccnc1
  ., 25[16.7 µM], ., 64*, ., -5
